From ChEMBL document CHEMBL1821642, “Discovery of 7-hydroxy-6-methoxy-2-methyl-3-(3,4,5-trimethoxybenzoyl)benzo[b]furan (BNC105), a tubulin polymerization inhibitor with potent antiproliferative and tumor vascular disrupting properties” (J Med Chem, 2011) come the findings set out here.

This test deals with HUVEC. Kind of test: Selectivity ratio of IC50 for HUVEC grown in absence of growth factors to IC50 for HUVEC grown in presence of growth factors. Type of test: functional, Homo sapiens.

The structures appear in SMILES notation.

Regarding `COc1cc(C(=O)c2coc3c(O)c(OC)ccc23)cc(OC)c1OC`, the “Ratio IC50” value amounted to 3.9.
